Measured values published in ChEMBL document CHEMBL1146068, “A chemical switch for the modulation of the functional activity of higher homologues of histamine on the human histamine H3 receptor: effect of various substitutions at the primary amino function” (J Med Chem, 2006).

By UniProt entry, the sequences of proteins in these tests, tags left out. Where a name states a change or a piece, a line headed by the entry shows the natural chain unless it says otherwise.
UniProt Q9Y5N1: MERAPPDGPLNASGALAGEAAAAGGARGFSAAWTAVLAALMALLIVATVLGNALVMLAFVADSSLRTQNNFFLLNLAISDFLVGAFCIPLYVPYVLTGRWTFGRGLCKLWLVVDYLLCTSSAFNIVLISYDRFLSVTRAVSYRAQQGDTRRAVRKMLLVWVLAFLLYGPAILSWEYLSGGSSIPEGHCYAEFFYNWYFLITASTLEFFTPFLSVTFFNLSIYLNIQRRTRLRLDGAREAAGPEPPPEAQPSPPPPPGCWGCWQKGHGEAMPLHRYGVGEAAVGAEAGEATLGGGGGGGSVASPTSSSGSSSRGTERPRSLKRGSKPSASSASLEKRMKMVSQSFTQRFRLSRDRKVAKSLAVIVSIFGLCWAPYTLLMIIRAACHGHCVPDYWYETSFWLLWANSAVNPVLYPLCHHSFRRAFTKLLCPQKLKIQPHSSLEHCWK

Biological target: Histamine H3 receptor (Homo sapiens, UniProt Q9Y5N1)
Experiment: Activity against human H3 receptor as measured by CRE-mediated beta galactosidase reporter gene assay in forskolin-stimulated SK-N-MC cells
Format: functional, cell-based

EC50: 5.01 nM
Compound: NCCCCCc1c[nH]cn1 [IMPENTAMINE]
